Read-outs that look alike come from different tables or passages of the source.
Test system: MDA-MB-231 (MDA 231, human breast adenocarcinoma)
Test: CCK-8 cell viability assay on MDA-MB-231 human breast adenocarcinoma cells
Format: cell-based
[1] = MDA-MB-231 cells, 48 hours compound incubation, CCK-8, read-out: EC50 (uM, MDA 231)
[2] = MDA-MB-231, 48 h, read-out: EC50 (uM, MDA 231)

EC50 [1] [µM] | SMILES | EC50 [2] [µM]
10 | O=c1[nH]c2c(c(=O)n1Cc1ccc(Cl)cc1)CN(Cc1ccccc1)CC2 [Example 5, 6-benzyl-3-(4-chlorobenzyl)-5,6,7,8-tetrahydropyrido[4,3-d]pyrimidine-2,4(1H,3H)-dione] | –
0.11 | Cn1c2c(c(=O)n(Cc3ccc(Br)cc3)c1=O)CN(Cc1cccc(C#N)c1)CC2 [Example 24, 3-((3-(4-bromobenzyl)-1-methyl-2,4-dioxo-1,2,3,4,7,8-hexahydropyrido[4,3-d]pyrimidin-6(5H)-yl)methyl)benzonitrile] | –
0.29 | Cn1c2c(c(=O)n(Cc3ccc(Cl)cc3)c1=O)CN(Cc1ccccc1)CC2 [Example 6, 6-benzyl-3-(4-chlorobenzyl)-1-methyl-5,6,7,8-tetrahydropyrido[4,3-d]pyrimidine-2,4(1H,3H)-dione] | –
1.3 | O=c1[nH]c2c(c(=O)n1Cc1ccc(C(F)(F)F)cc1)CN(Cc1ccccc1)CC2 [Example 8, 3-(4-(trifluoromethyl)benzyl)-6-benzyl-5,6,7,8-tetrahydropyrido[4,3-d]pyrimidine-2,4(1H,3H)-dione] | –
0.86 | Cn1c2c(c(=O)n(Cc3cccc(Br)c3)c1=O)CN(Cc1ccccc1)CC2 [Example 17, 6-benzyl-3-(3-bromobenzyl)-1-methyl-5,6,7,8-tetrahydropyrido[4,3-d]pyrimidine-2,4(1H,3H)-dione] | –
0.68 | C#Cc1cccc(CN2CCc3c(c(=O)n(Cc4ccc(C(F)(F)F)cc4)c(=O)n3C)C2)c1 [Example 18, 6-(3-ethynylbenzyl)-1-methyl-3-(4-(trifluoromethyl)benzyl)-5,6,7,8-tetrahydropyrido[4,3-d]pyrimidine-2,4(1H,3H)-dione] | –
4 | CC(C)n1c2c(c(=O)n(Cc3ccc(C(F)(F)F)cc3)c1=O)CN(Cc1ccccc1)CC2 [Example 10, 3-(4-(trifluoromethyl)benzyl)-6-benzyl-5,6,7,8-tetrahydro-1-isopropylpyrido[4,3-d]pyrimidine-2,4(1H,3H)-dione] | –
14 | CC(C)n1c2c(c(=O)n(Cc3ccc(Cl)cc3)c1=O)CN(Cc1ccccc1)CC2 [Example 7, 6-benzyl-3-(4-chlorobenzyl)-1-isopropyl-5,6,7,8-tetrahydropyrido[4,3-d]pyrimidine-2,4(1H,3H)-dione] | –
0.022 | CCn1c2c(c(=O)n(Cc3ccc(Cl)cc3)c1=O)CN(Cc1cccc(C#N)c1)CC2 [Example 28, 3-((3-(4-chlorobenzyl)-1-ethyl-2,4-dioxo-1,2,3,4,7,8-hexahydropyrido[4,3-d]pyrimidin-6(5H)-yl)methyl)benzonitrile] | –
4.1 | Cc1cccc(Cn2c(=O)c3c(n(C(C)C)c2=O)CCN(Cc2ccccc2)C3)c1 [Example 4, 6-benzyl-1-isopropyl-3-(3-methylbenzyl)-5,6,7,8-tetrahydropyrido[4,3-d]pyrimidine-2,4(1H,3H)-dione] | –
0.22 | CCn1c2c(c(=O)n(Cc3ccc(C(F)(F)F)cc3)c1=O)CN(Cc1cccc(C#N)c1)CC2 [Example 27, 3-((1-ethyl-2,4-dioxo-3-(4-(trifluoromethyl)benzyl)-1,2,3,4,7,8-hexahydropyrido[4,3-d]pyrimidin-6(5H)-yl)methyl)benzonitrile] | –
1 | CCn1c2c(c(=O)n(Cc3cccc(C(F)(F)F)c3)c1=O)CN(Cc1ccccc1)CC2 [Example 14, 3-(3-(trifluoromethyl)benzyl)-6-benzyl-1-ethyl-5,6,7,8-tetrahydropyrido[4,3-d]pyrimidine-2,4(1H,3H)-dione] | –
2.1 | Cn1c2c(c(=O)n(Cc3cccc(Cl)c3)c1=O)CN(Cc1ccccc1)CC2 [Example 15, 3-(3-chlorobenzyl)-6-benzyl-5,6,7,8-tetrahydro-1-methylpyrido[4,3-d]pyrimidine-2,4(1H,3H)-dione] | –
0.29 | Cn1c2c(c(=O)n(Cc3ccc(C(F)(F)F)cc3)c1=O)CN(Cc1cccc(Cl)c1)CC2 [Example 22, 6-(3-chlorobenzyl)-1-methyl-3-(4-(trifluoromethyl)benzyl)-5,6,7,8-tetrahydropyrido[4,3-d]pyrimidine-2,4(1H,3H)-dione] | –
– | Cc1ccccc1CN1C(=O)C2=C(CCN(Cc3ccccc3)C2)N2CCN=C12 [TIC10, 11-benzyl-7-[(2-methylphenyl)methyl]-2,5,7,11-tetraazatricyclo[7.4.0.0^2,6]trideca-1(9),5-dien-8-one, reference compound] | 3
2.6 | Cn1c2c(c(=O)n(Cc3ccc4c(c3)OCO4)c1=O)CN(Cc1ccccc1)CC2 [Example 23, 3-(benzo[d][1,3]dioxol-5-ylmethyl)-6-benzyl-1-methyl-5,6,7,8-tetrahydropyrido[4,3-d]pyrimidine-2,4(1H,3H)-dione] | –
0.55 | C#Cc1cccc(CN2CCc3c(c(=O)n(Cc4cccc(C)c4)c(=O)n3C)C2)c1 [Example 20, 6-(3-ethynylbenzyl)-1-methyl-3-(3-methylbenzyl)-5,6,7,8-tetrahydropyrido[4,3-d]pyrimidine-2,4(1H,3H)-dione] | –
– | Cn1c2c(c(=O)n(Cc3cccc(C(F)(F)F)c3)c1=O)CN(Cc1ccccc1)CC2 [Example 13] | 1.1
1.1 | C#Cc1cccc(CN2CCc3c(c(=O)n(Cc4ccccc4C)c(=O)n3C)C2)c1 [Example 19, 6-(3-ethynylbenzyl)-1-methyl-3-(2-methylbenzyl)-5,6,7,8-tetrahydropyrido[4,3-d]pyrimidine-2,4(1H,3H)-dione] | –
1.1 | Cn1c2c(c(=O)n(Cc3ccc(C(F)(F)F)cc3)c1=O)CN(Cc1ccccc1)CC2 [Example 9] | –
0.63 | C#Cc1cccc(CN2CCc3c(c(=O)n(Cc4ccc(Cl)cc4)c(=O)n3C)C2)c1 [Example 21, 3-(4-chlorobenzyl)-6-(3-ethynylbenzyl)-1-methyl-5,6,7,8-tetrahydropyrido[4,3-d]pyrimidine-2,4(1H,3H)-dione] | –
– | Cn1c2c(c(=O)n(Cc3ccc(Cl)cc3)c1=O)CN(Cc1cccc(C#N)c1)CC2 [Example 25, 3-((3-(4-chlorobenzyl)-1-methyl-2,4-dioxo-1,2,3,4,7,8-hexahydropyrido[4,3-d]pyrimidin-6(5H)-yl)methyl)benzonitrile] | 0.19
1.4 | Cc1cccc(CN2CCc3c(c(=O)n(Cc4ccc(C(F)(F)F)cc4)c(=O)n3C)C2)c1 [Example 29, 1-methyl-6-(3-methylbenzyl)-3-(4-(trifluoromethyl)benzyl)-5,6,7,8-tetrahydropyrido[4,3-d]pyrimidine-2,4(1H,3H)-dione] | –
0.085 | Cn1c2c(c(=O)n(Cc3ccc(C(F)(F)F)cc3)c1=O)CN(Cc1cccc(C#N)c1)CC2 [Example 26, 3-((1-methyl-2,4-dioxo-3-(4-(trifluoromethyl)benzyl)-1,2,3,4,7,8-hexahydropyrido[4,3-d]pyrimidin-6(5H)-yl)methyl)benzonitrile] | –
3.6 | Cc1cccc(Cn2c(=O)[nH]c3c(c2=O)CN(Cc2ccccc2)CC3)c1 [Example 2, 6-benzyl-3-[(3-methylphenyl)methyl]-1H, 2H, 3H, 4H, 5H, 6H, 7H, 8H-pyrido[4,3-d]pyrimidine-2,4-dione] | –
0.24 | Cc1cccc(Cn2c(=O)c3c(n(C)c2=O)CCN(Cc2ccccc2)C3)c1 [Example 3, 6-benxyl-1-methyl-3-[(3-methylphenyl)methyl]-1H, 2H, 3H, 4H, 5H, 6H, 7H, 8H-pyrido[4,3-d]pyrimidine-2,4-dione] | –
> 100 | Cn1c2c(c(=O)[nH]c1=O)CN(Cc1ccccc1)CC2 [Example 1, 6-benzyl-1-methyl-5,6,7,8-tetrahydropyrido[4,3-d]pyrimidine-2,4(1H,3H)-dione] | –
